## Measured affinities in a library of Ab-14 heavy chain variants

Source: Engelhart et al. 2022 (doi:10.1038/s41597-022-01779-4), MIT Lincoln Laboratory and A-Alpha Bio; data file from the FLAb repository.

Binding partner: SARS-CoV-2 spike HR2 peptide, sequence PDVDLGDISGINAS.

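The starting antibody came from a phage panning campaign against this peptide. In library AAYL49, one, two or three CDR residues were substituted; doubles and triples were drawn at random. In AlphaSeq, yeast of one mating type display the scFv and yeast of the other type display the target. Pairs that bind mate more often; barcode pairs of the diploids are counted by sequencing. Read counts were normalised to the haploid input and turned into Kd by a linear fit to BCL2-family pairs of known affinity, for each replicate. Each pool was mated in three replicate cultures.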

Parent: Ab-14, a human scFv built as VH, the linker GGGGSGGGGSGGGGS, VL. Only the CDRs of the heavy chain vary.
VH: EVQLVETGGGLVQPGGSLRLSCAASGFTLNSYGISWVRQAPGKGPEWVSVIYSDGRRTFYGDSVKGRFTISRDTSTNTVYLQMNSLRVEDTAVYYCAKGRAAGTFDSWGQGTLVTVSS
VL: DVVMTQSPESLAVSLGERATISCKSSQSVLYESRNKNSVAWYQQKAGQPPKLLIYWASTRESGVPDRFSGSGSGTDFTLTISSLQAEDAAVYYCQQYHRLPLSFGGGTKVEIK

Substitutions are numbered in sequence along the VH above, starting at 1 (not Kabat).
Every variant below is changed at R56 of the VH (sequential numbering).
Each Kd is an estimate from the mating assay, the geometric mean of the replicates in which the pair was seen; lower is stronger.
Where no diploid with the target was found in any replicate, the entry reads "no signal": below detection, most likely a poor binder, though not proof of it.
In this assay the parent's reference entry averaged 4.4 nM; its copy inside this library read 13 µM (one replicate of three).

For S35G/Y52W/R56Y, the assay gave no signal (0 of 3 replicates; controls 0 of 9). With R56V/G61E/V64S the result was 1.1 µM (1 of 3 replicates; controls 0 of 9). With Y32S/R56Q/R100I the result was 21 µM (1 of 3 replicates; controls 1 of 9). The variant L29R/N30C/R56H showed 1.1 µM (1 of 3 replicates; controls 1 of 9). The variant Y32T/R56S/A101L showed no signal (0 of 3 replicates; controls 0 of 9). For R56Y/K65N/A102Y, the assay gave 930 nM (2 of 3 replicates; controls 1 of 9). The variant S35N/R56P/F59A showed no signal (0 of 3 replicates; controls 1 of 9). The variant S35A/S53Q/R56P gave no signal (0 of 3 replicates; controls 1 of 9). With G33D/D54F/R56D the result was no signal (0 of 3 replicates; controls 1 of 9).

With R56M/G99D the result was 170 nM (3 of 3 replicates; controls 2 of 9). The variant G33D/G55Q/R56H gave 68 µM (1 of 3 replicates; controls 2 of 9). The variant R56E/T104C gave 68 nM (3 of 3 replicates; controls 1 of 9).

The opening 2 entries, copied out:

changes,Kd (apparent),detected,empty controls
S35G/Y52W/R56Y,no signal,0 of 3,0 of 9
R56V/G61E/V64S,1.1 µM,1 of 3,0 of 9

As a blank, each scFv also met three strains without target: over library AAYL49, 15% of these pairings were detected, typically at 11 µM and seldom below 680 nM. The control count says in how many pairings with the empty strains this scFv gave a signal.